Assay outcomes from PubChem BioAssay.
Anesthetic bind – binds horse apoferritin like a general anesthetic. AID 485281. apoferritin/1-aminoanthracene competitive binding, fluorescence. P02791. Potency, µM (doses to about 77.5 µM), without a hit: at the highest dose activity change, negative = displacement, actives largely listed as inhibitors. 0.074% of 350,000 active; note: potency is the fitted concentration of half-maximal effect; % is set by controls: 0 for no effect and ±100 for the full control effect; nearly all actives have a fitted effect of over 20% in size
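Read-out: endpoint 1-AMA fluorescence, excitation 380 nm and emission 535 nm, after compounds sit 10 min at room temperature with 10 uM horse-spleen apoferritin in 50% saturated 1-AMA/PBS. Values come from four-parameter Hill fits.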
TrxR1 inh – blocks rat thioredoxin reductase 1; 1% of 390,000 active; recombinant rTrxR1, NADPH fluorescence consumption, selenite substrate; O89049; Potency, µM (doses to about 114 µM), without a hit: at the top dose activity change, negative = inhibition, most hits filed as inhibitors; note: potency is the fitted concentration of half-maximal effect; % is set by controls: 0 for no effect and ±100 for the full control effect; nearly all actives have a fitted effect of over 65% in size
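Rat TrxR1 (90 nM in the dispensed reagent) was pre-reduced with 400 uM NADPH for 5 min at room temperature, then incubated with compound for 15 min. After 400 uM selenite was added, NADPH fluorescence (Ex 340/Em 450 nm) was followed for 8 min.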
miR-21 reporter – miR-21 reporter, rising signal. 340,000 tested, under 10 active. Potency, µM (highest dose often 38.3 µM), for the others: at the highest dose reporter change, positive = more light. HeLa miR-21 FLuc reporter, luciferase, 48 h. AID 2288; active = well fitted rising curve with a large enough effect; inconclusive = small, poorly fitted or top-dose-only effect; inactive = no such curve, though single readings can be large or run the other way;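 further: % of control where 0% means no effect; miR-21 action dims this reporter so a rising signal means less miR-21 action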
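Compounds were titrated across several concentrations (up to approximately 40 uM) and incubated 48 hours with HeLa miR-21-FLuc reporter cells (miR-21 target sequence downstream of FLuc, endogenous miR-21). Readout was firefly luciferase luminescence after lytic detection reagent.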
TrxR1 substrate – rat thioredoxin reductase 1 substrate activity; O89049; purified TrxR1 substrate turnover, NADPH consumption readout; Potency, µM (doses to about 114 µM), for inactives: top-dose activity change, negative = substrate turnover; 0.01% of 390,000 active; AID 588456; note: potency is the fitted concentration of half-maximal effect; % is set by controls: 0 for no effect and ±100 for the full control effect; nearly all actives have a fitted effect of over 50% in size
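Rat TrxR1, dispensed at 90 nM, was prereduced with 400 uM NADPH (final) for 5 min at ~22 deg C, then incubated with compound 15 min before 400 uM selenite. A first-read NADPH fluorescence drop versus no-compound background flagged substrates.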
ClpP mod – qHTS Assay for Activators of ClpP; ATP-dependent Clp protease proteolytic subunit (Bacillus subtilis (strain 168)), P80244; purified B. subtilis ClpP, FRET peptide cleavage, 20 min; Potency, µM (doses to about 57.5 µM), for inactives: at the top dose activity change, negative = active; 1.9% of 340,000 active; active = well fitted falling curve with a large enough effect; inconclusive = small, poorly fitted or top-dose-only effect; inactive = no such curve, though single readings can be large or run the other way; note: potency is the fitted concentration of half-maximal effect; the source files actives as falling curves though it sought activators and does not explain the sign; nearly all actives have a fitted effect of over 65% in size
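Buffer: 100 mM Tris/HCl pH8, 100 mM KCl, 0.05% low protease BSA, 2.5% glycerol, 0.01% Tween-20. ClpP 10 microg/mL final; 20 min RT; delta FRET normalized to ADEP and DMSO controls.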
Starred values were filed as active, the others as inactive; ? = inconclusive; . = no result; [ ] = remark or other dose. Compounds with a hit are over-represented: about 2.5% of the library has one in this group of screens. Unless noted, calls come from the whole dose curve; as a rule, active = well fitted curve in the direction sought with a large enough effect; inconclusive = small, poorly fitted or top-dose-only effect, or another doubt; inactive = no such curve, though single readings can be large; an effect the other way counts as inactive or inconclusive.

Amino acid sequences for entries named in this document (tags omitted).
ATP-dependent Clp protease proteolytic subunit (Bacillus subtilis (strain 168)), P80244, UniProt P80244, whole entry, looked up: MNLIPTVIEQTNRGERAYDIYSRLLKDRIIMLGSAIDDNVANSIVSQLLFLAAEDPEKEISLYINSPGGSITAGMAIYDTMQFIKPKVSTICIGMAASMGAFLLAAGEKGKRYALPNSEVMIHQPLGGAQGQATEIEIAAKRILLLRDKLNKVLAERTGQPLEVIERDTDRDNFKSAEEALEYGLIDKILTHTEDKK

[1] Cc1ccc(-c2ccc(CCC(=O)O)n2CC2CCCO2)cc1 (configuration not stated)
[2] CC1(C)CC(=O)C2=C(C1)Nc1cc3c(cc1C2c1ccc2c(c1)OCO2)OCO3 (configuration not stated)
[3] Cc1noc2c1C(c1ccc(N(C)C)cc1)C1=C(CC(C)(C)CC1=O)N2 (configuration not stated)
[4] Cc1ccc(C2C3=C(CC(C)(C)CC3=O)NC3=C2C(=O)c2ccccc23)cc1 (configuration not stated)
[5] Cc1ccc(C2C3=C(CC(C)(C)CC3=O)Nc3onc(C)c32)cc1 (configuration not stated)
[6] CC1(C)CC(=O)C2=C(C1)Nc1cc3c(cc1C2c1ccc(F)cc1)OCO3 (configuration not stated)
[7] Cc1cccc(NC(=O)c2oc3ccc(S(=O)(=O)N4CCC5(CC4)OCCO5)cc3c2C)c1C
[8] Cc1ccc2oc(=O)c(S(=O)(=O)c3ccc(F)cc3)cc2c1

assay / compound,1,2,3,4,5,6,7,8
Anesthetic bind,5%,119%,-21%,-15%,10%,94%,-23%,-7%
TrxR1 inh,-24%,20%[57.1 µM],50µM*,-19%,-13%[57.1 µM],-13%,3%[57.1 µM],48%
miR-21 reporter,-4%,-15%,-1%,10%,8%,8%,30%,4%
TrxR1 substrate,88%,29%[57.1 µM],6%,-8%,46%[57.1 µM],36%,0%[57.1 µM],12%
ClpP mod,25µM*,4%,-3%,9%,32µM*,32µM*,-6%,4%

[9] O=c1oc2c(F)cc(F)cc2cc1S(=O)(=O)c1ccc(F)cc1
[10] CCc1ccc(Cn2c(CNS(=O)(=O)c3ccc(F)c(Cl)c3)nc3cccnc32)cc1
[11] COC(=O)C1CC1[C@H](NC(=O)c1cccnc1)c1ccccc1 (some centres not stated)
[12] CCCCC1(Br)C(=O)N(c2ccccc2)N(c2ccccc2)C1=O
[13] COc1cc(/C=C2/C(=O)NN(c3ccc(C)c(Cl)c3)C2=O)cc([N+](=O)[O-])c1O
[14] Cc1ccc(N2NC(=O)/C(=C\c3cc4c(cc3[N+](=O)[O-])OCO4)C2=O)cc1C
[15] O=C(O)C1Cc2[nH]cnc2C(c2cccc([N+](=O)[O-])c2)N1 (configuration not stated)
[16] O=C(O)C1Cc2[nH]cnc2C(c2ccccc2O)N1 (configuration not stated)

assay / compound,9,10,11,12,13,14,15,16
Anesthetic bind,28%,-3%,-5%,.,-6%,?,-4%,-5%
TrxR1 inh,-16%,0%[57.1 µM],-10%,28µM*,-23%,18µM*,-2%,-34%
miR-21 reporter,-2%,-19%,.,.,-2%,-3%,-2%,0%
TrxR1 substrate,10%,-3%[57.1 µM],-3%,-3%,-20%,6%,-1%,-4%
ClpP mod,22µM*,-1%,.,-3%,0%,-3%,1%,28µM*

[17] COc1ccc(/C=N\Nc2ccccc2[N+](=O)[O-])c(C(=O)O)c1OC
[18] COc1ccc(/C=N\Nc2ccc([N+](=O)[O-])cc2[N+](=O)[O-])c(C(=O)O)c1OC
[19] CCOC(=O)c1ccc(OCC2c3cc(OC)c(OC)cc3CCN2C(=O)Cc2ccc(F)cc2)cc1 (configuration not stated)
[20] Cc1ccc(C(=O)CC(C(=O)O)n2cncn2)cc1 (configuration not stated)
[21] Cc1ccc(C(=O)CC(C(=O)O)n2cnc([N+](=O)[O-])n2)cc1 (configuration not stated)
[22] CCN(CC)S(=O)(=O)c1cc(C(=O)OCC(=O)Nc2ccc(-c3nc4ccc(C)cc4s3)cc2)ccc1F
[23] CCN(CC)S(=O)(=O)c1ccc(C(=O)OCC(=O)Nc2ccc(-c3nc4ccc(C)cc4s3)cc2)cc1
[24] CN(Cc1ccccc1)C(=O)c1cccc(NC(=O)c2nsc3ccccc23)c1

assay / compound,17,18,19,20,21,22,23,24
Anesthetic bind,0%,-10%,82%,-5%,-3%,-1%,9%,?
TrxR1 inh,2%,50µM*,5%[57.1 µM],8%[57.1 µM],32µM*,1%,5%,27%[57.1 µM]
miR-21 reporter,-55%,0%,18%,-5%,-3%,-25%,-51%,-48%
TrxR1 substrate,-17%,-19%,-5%[57.1 µM],8%[57.1 µM],-7%,51%,41%,3%[57.1 µM]
ClpP mod,0%,4%,-6%,-1%,.,18µM*,?,0%

[25] C=CCc1ccccc1OCc1nc2ccc(C)cc2[nH]1
[26] COCCCNC(=O)c1ccccc1NS(=O)(=O)c1ccc(C)cc1
[27] CS(=O)(=O)Nc1ccccc1C(=O)Nc1cccc(Cl)c1
[28] CS(=O)(=O)Nc1ccccc1C(=O)Nc1cc(Cl)cc(Cl)c1
[29] CS(=O)(=O)Nc1ccccc1C(=O)NC1CC2CCC1C2 (configuration not stated)
[30] CS(=O)(=O)Nc1ccccc1C(=O)Nc1ccccc1Cl
[31] COCCCNC(=O)c1ccccc1NS(C)(=O)=O
[32] CCOc1ccc(NC(=O)C2CCN(S(=O)(=O)c3c(C)noc3/C=C/c3cccs3)CC2)cc1

assay / compound,25,26,27,28,29,30,31,32
Anesthetic bind,-13%,-15%,7%,-10%,7%,1%,-15%,-4%
TrxR1 inh,-23%,6%,2%,40%[57.1 µM],28%,-1%,12%[57.1 µM],8%
miR-21 reporter,19%,-3%,10%,3%,-4%,-5%,-8%,1%
TrxR1 substrate,-2%,5%,10%,31%[57.1 µM],80%,3%,30%[57.1 µM],-7%
ClpP mod,-1%,-29%,-29%,14µM*,35µM*,-29%,28µM*,-8%

[33] CCc1ccc(-n2c(=O)c3c4c(sc3n(CC(=O)N3CCCCC3CC)c2=O)CCC4)cc1 (configuration not stated)
[34] CC(C)(C)c1nc(S(=O)(=O)c2ccc(Cl)cc2)c(N2CCOCC2)o1
[35] CC(C)Cc1nc(S(=O)(=O)c2ccc(Cl)cc2)c(N2CCOCC2)o1
[36] Cc1ccc(S(=O)(=O)c2nc(Cc3ccccc3)oc2N2CCOCC2)cc1
[37] COc1ccc(-c2nc(S(=O)(=O)c3ccccc3)c(N3CCOCC3)o2)cc1
[38] O=S(=O)(c1ccccc1)c1nc(-c2ccccc2)oc1N1CCCCC1
[39] Oc1ccc(Br)cc1C1C=C(c2ccc3c(c2)OCO3)NC(c2c(F)cccc2Cl)N1 (configuration not stated)
[40] Cc1cccc(N2C(=O)CSC23C(=O)N(C)c2ccccc23)c1 (configuration not stated)
[41] Cc1ccc(S(=O)(=O)c2nc(-c3ccccc3)oc2N2CCCC2)cc1
[42] Cc1sc(-c2cc3c([nH]c2=O)CC(c2ccccc2)CC3=O)nc1-c1ccc(Cl)cc1 (configuration not stated)

assay / compound,33,34,35,36,37,38,39,40,41,42
Anesthetic bind,-9%,0%,88%,.,1%,-11%,.,-5%,.,-13%
TrxR1 inh,13%,?,8.9µM*,4.5µM*,40µM*,45µM*,-7%,1%,6.3µM*,-2%
miR-21 reporter,-2%,1%,1%,.,-5%,-3%,.,1%,.,24%
TrxR1 substrate,4%,2%[57.1 µM],2%,9%,-3%,3%,0%,-8%,9%,1%
ClpP mod,1%,-2%,1%,.,-3%,-3%,.,-2%,1%,-7%

4 compounds drawn at random from those above:
[42] Cc1sc(-c2cc3c([nH]c2=O)CC(c2ccccc2)CC3=O)nc1-c1ccc(Cl)cc1 (configuration not stated)
[40] Cc1cccc(N2C(=O)CSC23C(=O)N(C)c2ccccc23)c1 (configuration not stated)
[35] CC(C)Cc1nc(S(=O)(=O)c2ccc(Cl)cc2)c(N2CCOCC2)o1
[34] CC(C)(C)c1nc(S(=O)(=O)c2ccc(Cl)cc2)c(N2CCOCC2)o1

assay / compound,42,40,35,34
Anesthetic bind,-13%,-5%,88%,0%
TrxR1 inh,-2%,1%,8.9µM*,?
miR-21 reporter,24%,1%,1%,1%
TrxR1 substrate,1%,-8%,2%,2%[57.1 µM]
ClpP mod,-7%,-2%,1%,-2%
